One experiment deals with Cytochrome P450 2C8 (Homo sapiens, UniProt P10632). The experiment in a line: Inhibition of CYP2C8 in human liver microsomes using paclitaxel as substrate preincubated for 5 mins by LC-MS/MS analysis. On the technique in general: Microsomes from liver hold many membrane-bound enzymes, among them those of drug oxidation.
A further experiment addresses Cytochrome P450 2B6 (Homo sapiens, UniProt P20813). The experiment is described as follows: Inhibition of CYP2B6 in human liver microsomes using bupropion as substrate preincubated for 5 mins by LC-MS/MS analysis.

The chains behind the UniProt entries cited, without tags or fusion partners. Where a name states a change or a piece, a line headed by the entry shows the natural chain unless it says otherwise.
UniProt P10632, whole entry: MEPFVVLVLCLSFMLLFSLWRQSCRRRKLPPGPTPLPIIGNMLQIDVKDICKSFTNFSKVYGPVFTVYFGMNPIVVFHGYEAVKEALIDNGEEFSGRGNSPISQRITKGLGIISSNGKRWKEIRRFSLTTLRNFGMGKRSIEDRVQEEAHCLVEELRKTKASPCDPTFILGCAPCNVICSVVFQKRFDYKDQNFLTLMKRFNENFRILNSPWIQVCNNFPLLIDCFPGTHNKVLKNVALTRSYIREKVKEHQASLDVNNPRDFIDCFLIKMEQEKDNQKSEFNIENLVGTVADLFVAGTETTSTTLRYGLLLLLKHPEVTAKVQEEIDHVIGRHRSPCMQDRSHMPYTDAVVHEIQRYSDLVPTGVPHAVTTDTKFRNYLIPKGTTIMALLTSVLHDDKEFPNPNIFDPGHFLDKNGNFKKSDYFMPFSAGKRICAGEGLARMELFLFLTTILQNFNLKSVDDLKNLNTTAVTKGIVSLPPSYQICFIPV
UniProt P20813: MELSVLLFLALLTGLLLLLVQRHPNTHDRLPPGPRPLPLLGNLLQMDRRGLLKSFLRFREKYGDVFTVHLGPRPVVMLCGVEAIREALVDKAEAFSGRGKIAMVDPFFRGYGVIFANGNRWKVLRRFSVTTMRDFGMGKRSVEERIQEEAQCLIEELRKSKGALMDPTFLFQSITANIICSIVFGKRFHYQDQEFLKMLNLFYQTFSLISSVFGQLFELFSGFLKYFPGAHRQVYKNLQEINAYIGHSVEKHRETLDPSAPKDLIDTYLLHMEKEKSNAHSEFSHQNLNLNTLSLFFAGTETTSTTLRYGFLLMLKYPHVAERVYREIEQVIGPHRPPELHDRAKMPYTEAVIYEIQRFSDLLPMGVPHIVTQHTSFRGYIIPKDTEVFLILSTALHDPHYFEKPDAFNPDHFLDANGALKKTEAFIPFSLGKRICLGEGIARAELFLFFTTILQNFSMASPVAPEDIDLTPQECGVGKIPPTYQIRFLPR

For `COc1ccc2nc(SCc3ccc(C(=O)O)cc3)[nH]c2c1`, inhibition against Cytochrome P450 2C8 was half-maximal at 50 µM (IC50).

In the case of `CCCSc1nc2ccc(OC)cc2[nH]1`, 50 µM corresponded to half-maximal inhibition on Cytochrome P450 2B6 (IC50).

As for `COc1ccc2[nH]c(SCCCC(=O)O)nc2c1`, the IC50 – broadly, the concentration needed to halve the response being measured – against Cytochrome P450 2C8 was determined as 50 µM.

Source of the values: ChEMBL document CHEMBL2016494, “Ligand-based design of a potent and selective inhibitor of cytochrome P450 2C19” (J Med Chem, 2012).
